Reference: paper PMC12467033, “Exploring the Inhibitory Potential of Six Porphyrin Compounds Against α-Amylase and α-Glucosidase Linked to Diabetes” (Biomolecules, 2025)

Test system: HepG2 cells
Test: MTT cytotoxicity assay
Format: cell-based, human
Conditions: 24 h
Protocol: The cytotoxicity of six porphyrin compounds against human hepatocellular carcinoma HepG2 cells was evaluated using the MTT assay. HepG2 cells were seeded into 96-well plates at a density of 5000 cells per well and cultured for 24 h at 37 °C in a 5% CO2 incubator. Then, 100 µL of sample solutions at various concentrations (50, 100, and 200 µg/mL) was added to the experimental wells, with blank control wells and solvent control wells also included. The cells were further incubated for 24 h. After incubation, 10 µL of MTT solution (5 mg/mL) was added to each well, and the plates were incubated for another 4 h. Subsequently, 100 µL of Formazan solubilization solution was added to each well, followed by gentle mixing. The plates were returned to the incubator and maintained until complete dissolution of Formazan crystals was observed under a microscope. The absorbance at 570 nm was measured using a microplate reader (Meigu Molecular Instrument Company, Shanghai, China), and the survival rate of HepG2 cells was calculated.(12) Cell viability=As-Ab/Ac-Ab×100%
In the formula, As represents the absorbance of the sample well, Ac denotes the absorbance of the blank control well (without the drug), and Ab refers to the absorbance of the solvent control well (devoid of both cells and the drug).

## iron (III) meso-tetra (4-carboxyphenyl) porphyrin chloride [Fe–TCPP]
HepG2, 50 μg/mL
  cytotoxicity (in words): no significant harm
HepG2, 100 μg/mL
  cell viability: 60.40 ± 5.69%
HepG2, 200 μg/mL
  cell viability (survival rate): 55.41 ± 0.93%
